This is an account of results in BindingDB's records for doi:10.1021/jm8012344 (Washington University, 2009).

Protein sequences, listed by entry. Tags and fused reporters are not part of them.
UniProt Q60492, whole entry: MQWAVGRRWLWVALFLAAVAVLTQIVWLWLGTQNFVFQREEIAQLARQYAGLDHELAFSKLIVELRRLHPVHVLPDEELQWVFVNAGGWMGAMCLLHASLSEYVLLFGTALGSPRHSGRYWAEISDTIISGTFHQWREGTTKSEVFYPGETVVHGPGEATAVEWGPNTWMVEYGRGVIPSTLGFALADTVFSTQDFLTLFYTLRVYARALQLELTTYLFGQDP

For the assay, the target named is Sigma non-opioid intracellular receptor 1 (Cavia porcellus, UniProt Q60492). In words: Displacement of [3H](+)-pentazocine from sigma1 receptor in guinea pig brain membrane by liquid scintillation counting. In general terms: In a radioligand displacement assay an active substance lowers the binding of a labelled ligand.

SMILES strings stand for the structures.

For the compound `O=C(c1ccc(F)cc1)C1CCN([C@@H]2Cc3ccccc3C[C@H]2O)CC1` [(+/-)-trans-2-Hydroxy-3-(4-(4-fluorobenzoyl)piperidino)tetralin], affinity was put at a Ki of 186 nM.
